Reference: publication PMC4033651 (Journal of Medicinal Chemistry, 2014)

Tested on: mice
Conditions: mouse, in vivo

## CO[C@@]12CC[C@@]3(C[C@@H]1[C@](C)(O)C(C)(C)C)[C@H]1Cc4ccc(O)c5c4[C@@]3(CCN1CC1CC1)[C@H]2O5 [Compound 1b, buprenorphine]
  Agonist activity in the acetic acid stretch test: potent and fully efficacious
